According to patent US12370187B2, “Composition containing antitumor drug, and preparation method thereof and use thereof” (KUNSHAN XINYUNDA BIOTECH CO., LTD., priority 2021, dated 2025):
Read-outs that look alike come from different tables or passages of the source.

Legend:
[1] = tested on: human colon cancer cell line HCT116; settings: A01S 450 mg/kg iv QW × 4
Excerpt: One week after the last dose, tumors were taken from all mice, weighed, and photographed.

[2] = tested on: human colon cancer cell line SW620; settings: for Tumor Volume: A01S 420 mg/kg iv QW × 4
[3] = tested on: human ovarian cancer cell line SKOV-3; settings: A01S 450 mg/kg iv QW × 4
Excerpt: SKOV-3 tumor masses were subcutaneously inoculated to 80 BALB/c nude mice.

[4] = tested on: human triple-negative breast cancer cell line MDA-MB-231; assay: In vivo pharmacodynamic study on MDA-MB-231 tumor (Example 24); settings: A01S 240 mg/kg iv QW × 3
Protocol: One week after the last administration, tumors were taken from all the mice and weighed.
The clinical symptoms observed during the experiment were recorded in the raw data. Tumor volume was calculated by the following formula: […]
Relative tumor proliferation rate (T/C (%)) represents a ratio in percentage of relative tumor volumes or tumor weights of a treatment group and a control group at a time point, which was calculated by the following formula: […]
Relative tumor inhibition rate (TGI (%)) was calculated by the following formula: […]

For “A01S: human serum albumin (Guang Dong Shuang Lin Bio-Pharmacy) used as negative control [Example A01S]”, the “T/C (%) RTV” value [1] was 89%, the “T/C (%) TW” value [1] was 68% and the “Tumor Volume” value ([1]; D15) was 117 ± 14 mm^3. The “Tumor Volume” value ([1]; D19) was 184 ± 23 mm^3, the “Tumor Volume” value ([1]; D22) was 244 ± 36 mm^3 and the “Tumor Volume” value ([1]; D26) was 403 ± 37 mm^3. For the same substance, the “Tumor Volume” value ([1]; D29) was 521 ± 28 mm^3, the “Tumor Volume” value ([1]; D33) was 723 ± 41 mm^3 and the “Tumor Volume” value ([1]; D36) was 794 ± 54 mm^3. The “Tumor Volume” value ([1]; D40) was 863 ± 57 mm^3, the RTV ([1]; D 43) was 11.22 ± 1.87 and the “Tumor Volume” value ([1]; D 43) was 1176 ± 77 mm^3. The “Tumor Weight” value ([1]; D 43) was 982 ± 78 mg, the “Tumor Volume (mm^3) D 13” value ([2]; 420 mg/kg, D 13) was 130 ± 17 mm^3 and the “RTV (D 41)” value ([2]; 420 mg/kg, D 41) was 18.75 ± 2.38. For the same substance, the “T/C (%) RTV” value ([2]; 420 mg/kg, D 41) was 114%, the “T/C (%) TW” value ([2]; 420 mg/kg, D 41) was 119% and the “Tumor Volume (mm^3) D 41” value ([2]; 420 mg/kg, D 41) was 2364 ± 331 mm^3. For the same substance, the “Tumor Weight (mg) (D 41)” value ([2]; 420 mg/kg, D 41) was 2089 ± 304 mg, the “Tumor Volume” value ([2]; D13) was 130 ± 17 mm^3 and the “Tumor Volume” value ([2]; D16) was 227 ± 34 mm^3. For the same substance, the “Tumor Volume” value ([2]; D20) was 377 ± 49 mm^3, the “Tumor Volume” value ([2]; D23) was 578 ± 78 mm^3 and the “Tumor Volume” value ([2]; D27) was 892 ± 132 mm^3. For the same substance, the “Tumor Volume” value ([2]; D30) was 1129 ± 170 mm^3, the “Tumor Volume” value ([2]; D34) was 1434 ± 210 mm^3 and the “Tumor Volume” value ([2]; D37) was 1772 ± 262 mm^3. For the same substance, the “Tumor Volume” value ([2]; D41) was 2364 ± 331 mm^3, the “T/C (%) RTV” value [3] was 130% and the “T/C (%) TW” value [3] was 149%. The “Tumor Volume” value ([3]; D14) was 163 ± 17 mm^3, the “Tumor Volume” value ([3]; D21) was 458 ± 58 mm^3 and the “Tumor Volume” value ([3]; D25) was 708 ± 89 mm^3. The “Tumor Volume” value ([3]; D28) was 857 ± 91 mm^3, the “Tumor Volume” value ([3]; D32) was 1199 ± 149 mm^3 and the “Tumor Volume” value ([3]; D35) was 1607 ± 249 mm^3. The “Tumor Volume” value ([3]; D39) was 2206 ± 360 mm^3, the RTV ([3]; D 42) was 18.75 ± 3.69 and the “Tumor Volume” value ([3]; D 42) was 2933 ± 513 mm^3. The “Tumor Weight” value ([3]; D 42) was 2611 ± 477 mg, the “T/C (%) RTV” value [4] was 109% and the “T/C (%) TW” value [4] was 98%. The “Tumor Volume” value ([4]; D16) was 145 ± 27 mm^3, the RTV ([4]; D33) was 20.67 ± 2.65 and the “Tumor Volume” value ([4]; D33) was 2811 ± 432 mm^3. The “Tumor Weight” value ([4]; D33) was 2399 ± 304 mg.
